Read-outs that look alike come from different tables or passages of the source.

With “9-[2-(R)-[[bis[[(isopropoxycarbonyl)oxy]methoxy] phosphinoyl]methoxy]propyl]-adenine•fumaric acid (1:1) [BPPF]”, the solubility is, setting by setting: (0.1 n hcl) 15 to 100 mg/mL; (acetone) 15 to 100 mg/mL; (acetonitrile) 3 to 15 mg/mL; (deionized water, pH 3.3) 3 to 15 mg/mL; (dimethylformamide) 428 mg/mL; (ethanol) 15 to 100 mg/mL. In addition, the solubility was in the range of 15 to 100 mg/mL (isopropanol), 3 to 15 mg/mL (isopropyl acetate), 15 to 100 mg/mL (isopropyl acetate:water (1:1 v/v)) and 15 to 100 mg/mL (methanol).

Usually solubility stands for the dissolved amount per volume that the medium holds.

These data come from EP1243590A2, “Nucleotide analog composition and synthesis method” (GILEAD SCIENCES, INC., priority 1997, dated 1999).
